Assays:
[1] = molecular target: αIIbβ3 integrin (Homo sapiens, UniProt P05106+P08514); assay: Assay for the inhibition of αIIbβ3 integrin binding (fibrinogen as ligand, integrin captured from platelet lysate); details: read-out: IC50 (nM) αIIbβ3 integrin binding; inhibition of specific binding of biotinylated fibrinogen to αIIbβ3 integrin from human platelet lysate
[2] = molecular target: αvβ3 integrin (Homo sapiens, UniProt P05106+P06756); assay: Assay for the inhibition of αvβ3 integrin binding (vitronectin as ligand); details: read-out: IC50 (nM) αvβ3 integrin binding; inhibition of specific binding of biotinylated human vitronectin to immobilized αvβ3 integrin

The chains behind the UniProt entries cited, without tags or fusion partners. Residues count along the entry.
UniProt P05106, 27-788 limits assumed: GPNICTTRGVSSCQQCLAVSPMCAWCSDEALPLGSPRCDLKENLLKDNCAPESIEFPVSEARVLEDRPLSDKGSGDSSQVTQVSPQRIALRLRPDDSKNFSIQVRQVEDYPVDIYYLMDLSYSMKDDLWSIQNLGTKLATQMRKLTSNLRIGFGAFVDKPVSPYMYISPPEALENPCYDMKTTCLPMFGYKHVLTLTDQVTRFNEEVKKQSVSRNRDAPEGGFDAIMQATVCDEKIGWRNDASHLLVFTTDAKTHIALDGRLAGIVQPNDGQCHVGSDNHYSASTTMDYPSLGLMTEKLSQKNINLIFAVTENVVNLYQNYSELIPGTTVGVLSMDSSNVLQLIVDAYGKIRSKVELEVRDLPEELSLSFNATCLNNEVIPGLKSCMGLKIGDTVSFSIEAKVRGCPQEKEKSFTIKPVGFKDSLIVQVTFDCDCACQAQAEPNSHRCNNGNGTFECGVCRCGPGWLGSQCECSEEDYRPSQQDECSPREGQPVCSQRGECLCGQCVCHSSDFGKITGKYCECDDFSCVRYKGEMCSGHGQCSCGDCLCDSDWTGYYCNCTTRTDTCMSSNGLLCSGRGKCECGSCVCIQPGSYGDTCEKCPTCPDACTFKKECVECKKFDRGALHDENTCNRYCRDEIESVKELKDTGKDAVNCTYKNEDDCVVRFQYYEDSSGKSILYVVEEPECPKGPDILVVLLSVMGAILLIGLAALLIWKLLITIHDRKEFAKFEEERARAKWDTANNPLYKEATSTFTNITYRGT
UniProt P08514, 32-887 limits assumed: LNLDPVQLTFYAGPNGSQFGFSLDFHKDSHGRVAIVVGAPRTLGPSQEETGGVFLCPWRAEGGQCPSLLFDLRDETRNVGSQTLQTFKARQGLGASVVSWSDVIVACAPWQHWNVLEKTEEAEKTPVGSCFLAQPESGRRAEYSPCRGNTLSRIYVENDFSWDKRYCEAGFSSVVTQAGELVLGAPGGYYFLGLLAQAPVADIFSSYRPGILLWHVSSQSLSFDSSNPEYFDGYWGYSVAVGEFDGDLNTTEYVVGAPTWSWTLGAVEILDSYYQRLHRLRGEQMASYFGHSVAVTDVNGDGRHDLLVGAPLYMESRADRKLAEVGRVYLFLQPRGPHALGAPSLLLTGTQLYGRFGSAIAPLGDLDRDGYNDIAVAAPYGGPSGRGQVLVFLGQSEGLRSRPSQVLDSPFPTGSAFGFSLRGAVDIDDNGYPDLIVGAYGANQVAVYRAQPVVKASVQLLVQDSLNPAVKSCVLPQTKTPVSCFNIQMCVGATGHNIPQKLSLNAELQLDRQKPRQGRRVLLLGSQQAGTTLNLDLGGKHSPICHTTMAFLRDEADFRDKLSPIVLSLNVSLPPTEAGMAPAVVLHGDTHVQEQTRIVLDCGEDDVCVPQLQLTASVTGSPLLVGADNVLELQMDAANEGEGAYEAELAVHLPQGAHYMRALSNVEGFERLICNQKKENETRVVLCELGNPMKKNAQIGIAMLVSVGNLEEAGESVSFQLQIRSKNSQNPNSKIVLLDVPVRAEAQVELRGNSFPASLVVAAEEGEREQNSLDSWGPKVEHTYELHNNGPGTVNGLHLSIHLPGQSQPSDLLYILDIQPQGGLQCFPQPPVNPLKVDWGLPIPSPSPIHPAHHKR
UniProt P08514, 891-1039 partner limits assumed: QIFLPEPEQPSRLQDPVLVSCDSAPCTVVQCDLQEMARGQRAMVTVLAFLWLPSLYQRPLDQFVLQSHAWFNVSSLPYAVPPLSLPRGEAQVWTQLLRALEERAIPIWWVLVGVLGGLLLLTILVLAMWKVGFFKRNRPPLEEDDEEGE
UniProt P06756, 31-889 limits assumed: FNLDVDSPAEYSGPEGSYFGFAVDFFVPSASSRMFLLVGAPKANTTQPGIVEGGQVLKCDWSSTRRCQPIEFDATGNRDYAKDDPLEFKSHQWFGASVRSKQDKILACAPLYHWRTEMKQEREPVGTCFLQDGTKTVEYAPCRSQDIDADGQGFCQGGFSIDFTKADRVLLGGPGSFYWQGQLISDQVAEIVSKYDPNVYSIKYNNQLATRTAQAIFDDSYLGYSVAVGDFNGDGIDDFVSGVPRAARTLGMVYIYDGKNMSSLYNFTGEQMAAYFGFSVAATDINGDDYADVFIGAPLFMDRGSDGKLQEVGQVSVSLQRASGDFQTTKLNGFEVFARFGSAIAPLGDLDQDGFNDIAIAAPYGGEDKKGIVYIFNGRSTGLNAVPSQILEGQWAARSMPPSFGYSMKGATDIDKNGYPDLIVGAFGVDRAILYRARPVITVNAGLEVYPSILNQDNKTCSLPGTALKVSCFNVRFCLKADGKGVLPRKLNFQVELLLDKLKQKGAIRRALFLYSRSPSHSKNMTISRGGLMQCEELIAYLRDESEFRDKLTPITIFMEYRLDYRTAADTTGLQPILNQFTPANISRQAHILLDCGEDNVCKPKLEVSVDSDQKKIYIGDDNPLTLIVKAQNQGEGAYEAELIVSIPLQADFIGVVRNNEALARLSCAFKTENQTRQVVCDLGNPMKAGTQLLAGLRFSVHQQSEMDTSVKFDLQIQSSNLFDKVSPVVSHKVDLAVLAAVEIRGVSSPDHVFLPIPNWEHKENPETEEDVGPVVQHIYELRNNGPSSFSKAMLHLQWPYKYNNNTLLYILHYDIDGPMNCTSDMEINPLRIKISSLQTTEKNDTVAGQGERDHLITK
UniProt P06756, 891-1048 partner limits assumed: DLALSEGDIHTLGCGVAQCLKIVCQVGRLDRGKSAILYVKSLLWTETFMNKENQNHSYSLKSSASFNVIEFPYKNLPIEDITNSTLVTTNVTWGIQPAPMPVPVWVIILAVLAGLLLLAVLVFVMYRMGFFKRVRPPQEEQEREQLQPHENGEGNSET

Structure (SMILES)	IC50 [1]	IC50 [2]
O=C(NC[C@H](NS(=O)(=O)c1ccc(F)cc1)C(=O)O)C1CCN(c2cccc(NC3=NCCCN3)c2)CC1	320 nM	0.45 nM
CCCCCCCCS(=O)(=O)N[C@@H](CNC(=O)C1CCN(c2cccc(NC3=NCCCN3)c2)CC1)C(=O)O	650 nM	1.4 nM
CC(C)CC(=O)N[C@@H](CNC(=O)C1CCN(c2cccc(NC3=NCCCN3)c2)CC1)C(=O)O	580 nM	5.7 nM
O=C(NC[C@H](NC(=O)C1CCCC1)C(=O)O)C1CCN(c2cccc(NC3=NCCCN3)c2)CC1	960 nM	3.9 nM
CCCS(=O)(=O)N[C@@H](CNC(=O)C1CCN(c2cccc(NC3=NCCCN3)c2)CC1)C(=O)O	350 nM	0.65 nM
O=C(Cc1ccccc1)N[C@@H](CNC(=O)C1CCN(c2cccc(NC3=NCCCN3)c2)CC1)C(=O)O	450 nM	0.74 nM
CC(C)=CC(=O)N[C@@H](CNC(=O)C1CCN(c2cccc(NC3=NCCCN3)c2)CC1)C(=O)O	480 nM	0.87 nM
CCCCCCOC(=O)N[C@@H](CCC(=O)N1CCN(c2cccc(NC3=NCC(C)(C)CN3)c2)CC1)C(=O)O	> 1000 nM	0.39 nM
CCCCCC(=O)N[C@@H](CNC(=O)C1CCN(c2cccc(NC3=NCCCN3)c2)CC1)C(=O)O	> 1000 nM	5.1 nM
CC(C)NC(=O)N[C@@H](CNC(=O)C1CCN(c2cccc(NC3=NCCCN3)c2)CC1)C(=O)O	270 nM	0.72 nM
O=C(CCc1ccccc1)N[C@@H](CNC(=O)C1CCN(c2cccc(NC3=NCCCN3)c2)CC1)C(=O)O	1100 nM	3 nM
O=C(N[C@@H](CNC(=O)C1CCN(c2cccc(NC3=NCCCN3)c2)CC1)C(=O)O)c1ccccn1	430 nM	0.75 nM

The next compounds have a lower IC50 [1] than those just listed; values first:

IC50 [1]	IC50 [2]	Structure (SMILES)
210 nM	2.5 nM	O=C(N[C@@H](CNC(=O)C1CCN(c2cccc(NC3=NCCCN3)c2)CC1)C(=O)O)c1ccccc1
190 nM	–	COc1ccc(S(=O)(=O)N[C@@H](CNC(=O)C2CCN(c3cccc(NC4=NCCCN4)c3)CC2)C(=O)O)cc1
160 nM	0.47 nM	O=C(Nc1cccnc1)N[C@@H](CNC(=O)C1CCN(c2cccc(NC3=NCCCN3)c2)CC1)C(=O)O
150 nM	0.35 nM	O=C(NCc1ccccc1)N[C@@H](CNC(=O)C1CCN(c2cccc(NC3=NCCCN3)c2)CC1)C(=O)O
73 nM	0.25 nM	O=C(NC[C@H](NS(=O)(=O)c1ccc2ccccc2c1)C(=O)O)C1CCN(c2cccc(NC3=NCCCN3)c2)CC1
24 nM	0.1 nM	O=C(NC[C@H](NS(=O)(=O)c1ccccc1)C(=O)O)C1CCN(c2cccc(NC3=NCCCN3)c2)CC1
13 nM	0.065 nM	Cc1cc(C)c(S(=O)(=O)N[C@@H](CNC(=O)C2CCN(c3cccc(NC4=NCCCN4)c3)CC2)C(=O)O)c(C)c1

From patent publication US7176199B2, “Aryl-substituted alicyclic compound and medical composition comprising the same” (Dainippon Pharmaceutical Co., Ltd., priority 2001, dated 2007)
